Measured values from article PMC10267138, “A polyamine acetyltransferase regulates the motility and biofilm formation of Acinetobacter baumannii” (Nature Communications, 2023).

Tested on: NCCCN
Test: purified protein
Settings: [14C]acetyl-CoA (200 µM) co-substrate, pH 8.5 in Results (Methods say Tris-HCl pH 9), 22 °C

Dpa (Acinetobacter baumannii) was tested, and the Km was 84.9 µM.
